# Bioassay records deposited in PubChem BioAssay by National Center for Advancing Translational Sciences (NCATS).
# Only some compounds are listed: those with a hit (about 16% of all), similar ones and a draw of the others.
# TDP1 block = blocks human tyrosyl-DNA phosphodiesterase 1. Q9NUW8. Potency, µM (highest dose often 130 µM), without a hit: top-dose activity change, negative = inhibition, actives largely listed as inhibitors. 0.28% of 350,000 active. recombinant TDP1, AlphaScreen DNA substrate cleavage; note: potency is the fitted concentration of half-maximal effect; % is set by controls: 0 for no effect and ±100 for the full control effect; nearly all actives have a fitted effect of over 40% in size
#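 Here, a 5' biotin and 3' phosphotyrosine-FITC DNA oligonucleotide reports Tdp1 activity: intact substrate bridges AlphaScreen beads, while cleavage leaves a 3' phosphate and drops signal. All incubations at room temperature.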
# miR-21 reporter = raises the signal of a miR-21 reporter | HeLa miR-21 FLuc reporter, luciferase, 48 h | Potency, µM (doses to about 38.3 µM), for the others: at the highest dose reporter change, positive = more light | 340,000 tested, under 10 active | AID 2288; active = well fitted rising curve with a large enough effect; inconclusive = small, poorly fitted or top-dose-only effect; inactive = no such curve, though single readings can be large or run the other way;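 also: % of control where 0% means no effect; miR-21 action dims this reporter so a rising signal means less miR-21 action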
#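 Luminescence from a firefly luciferase reporter carrying a miR-21 binding site downstream, stably expressed under a CMV promoter in HeLa cells that make miR-21 endogenously, reports miRNA modulation after 48 h compound exposure up to approximately 40uM final.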
# TDP1 cell CPT = growth inhibition of DT40 Tdp1-/-;hTDP1 cells with camptothecin (screen for TDP1 inhibitors). chicken DT40 Tdp1-/-;hTDP1 cells + 20 nM CPT, ATP luminescence, 48 h. Potency, µM (doses to about 46.2 µM), without a hit: at the highest dose activity change, negative = growth inhibition, usual class: inhibitors. 12% of 420,000 active. AID 686979; note: potency is the fitted concentration of half-maximal effect; % is set by controls: 0 for no effect and ±100 for the full control effect; nearly all actives have a fitted effect of over 55% in size
#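 Chicken DT40 Tdp1-/- cells complemented with human TDP1, 400 cells/well, exposed to compounds plus 20 nM camptothecin for at least 48 h at 37 C; viability read as ATP content by CellTiter-Glo luminescence.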
# uPA surface inh = inhibitors of cell surface uPA generation. Potency, µM (doses to about 38.3 µM), for inactives: at the top dose activity change, negative = inhibition, usual class: inhibitors. 0.31% of 330,000 active. AID 540303. cell surface uPA generation assay, qHTS; active = well fitted inhibition curve with a large enough effect; inconclusive = small, poorly fitted or top-dose-only effect; inactive = no such curve, though single readings can be large or run the other way; tested in mouse RAW 264.7 cells; note: potency is the fitted concentration of half-maximal effect; % is set by controls: 0 for no effect and ±100 for the full control effect; nearly all actives have a fitted effect of over 55% in size
# TDP1 cell noCPT = qHTS for Inhibitors of human tyrosyl-DNA phosphodiesterase 1 (TDP1): qHTS in cells in absence of CPT; Potency, µM (top dose mostly 46.2 µM), for inactives: top-dose activity change, negative = growth inhibition, usual class: inhibitors; 15% of 420,000 active; DT40 Tdp1-/- hTDP1 cells, no CPT, ATP luminescence, 48 h; note: potency is the fitted concentration of half-maximal effect; % is set by controls: 0 for no effect and ±100 for the full control effect; nearly all actives have a fitted effect of over 55% in size
#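 Growth of hTDP1-complemented DT40 Tdp1-knockout cells is measured by ATP luminescence after at least 48 hr compound exposure at 37 °C, with DMSO substituting for the 20 nM CPT used in the parallel screen.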
# Active calls of the source: *; ? = inconclusive; nt = no result. Unless noted, calls come from the whole dose curve; as a rule, active = well fitted curve in the direction sought with a large enough effect; inconclusive = small, poorly fitted or top-dose-only effect, or another doubt; inactive = no such curve, though single readings can be large; an effect the other way counts as inactive or inconclusive.
# Abbreviations: A = TDP1 block; B = miR-21 reporter; C = TDP1 cell CPT; D = uPA surface inh; E = TDP1 cell noCPT
1. COC(=O)CNC(=O)C1CCCN1C(=O)OC(C)(C)C (stereo not drawn)
  A: 3.9%	B: -8.1%	C: -8.2%	D: nt	E: -9.8%
2. Cc1cc(Cl)ccc1NNC(=O)c1cccs1
  A: 9.4%	B: -19.0%	C: -3.1%	D: 4.6%	E: -9.8%
3. CC(=O)C(=Nc1cccc(Cl)c1)NNc1ccccc1C
  A: nt	B: nt	C: ?	D: -27.8%	E: 14.6µM*
4. Cc1cc(C)c(C)c(S(=O)(=O)N2CCN(C(=O)c3ccccc3OCc3c(C)noc3C)CC2)c1C
  A: 2.6%	B: nt	C: ?	D: -9.1%	E: 18.4µM*
5. Cc1noc(C)c1COc1ccccc1C(=O)N1CCN(S(=O)(=O)c2ccc(C(C)C)cc2)CC1
  A: nt	B: nt	C: ?	D: nt	E: 16.4µM*
6. CCC1=C2CC[C@H]3C(=O)N(CC(=O)OC)C(=O)[C@H]3[C@H]2[C@@]2(Cc3ccccc3)C(=NCCOC)OC(=O)N2C1=O
  A: 6.9%	B: nt	C: nt	D: nt	E: nt
7. CC(C)C(=O)NC(Nc1cccc2cccnc12)C(Cl)(Cl)Cl (stereo not drawn)
  A: 5.7%	B: 7.7%	C: 14.6µM*	D: -6.1%	E: 13µM*
8. CC(C)CC(=O)NC(NC(=S)Nc1cccc2cccnc12)C(Cl)(Cl)Cl (stereo not drawn)
  A: 7.8%	B: 21.5%	C: 8.2µM*	D: -3.9%	E: 8.2µM*
9. Cc1ccc(C2OC(=O)C=C2c2ccccc2)cc1 (stereo not drawn)
  A: -0.6%	B: nt	C: ?	D: -1.8%	E: ?
10. COc1ccc(-c2coc3c(C)c4oc(=O)c(CC(=O)O)c(C)c4cc23)cc1
  A: nt	B: 3.6%	C: -5.1%	D: 7.7%	E: -9.8%

# Single values from the results shown.
# entry 6 in TDP1 block: 6.9%
# entry 1 in miR-21 reporter: -8.1%
# entry 3 in uPA surface inh: -27.8%

# Next part.
# Abbreviations: A = TDP1 block; B = miR-21 reporter; C = TDP1 cell CPT; D = uPA surface inh; E = TDP1 cell noCPT
11. Cc1c(CC(=O)O)c(=O)oc2c(C)c3occ(-c4ccc(Br)cc4)c3cc12
  A: nt	B: -2.3%	C: -8.3%	D: 1.2%	E: 16.4µM*
12. Cc1ccc(S(=O)(=O)NNC(=O)C(=O)NNc2ccccn2)cc1
  A: 11.8%	B: 8.3%	C: ?	D: -8.8%	E: ?
13. Cc1ccccc1S(=O)(=O)NNC(=O)C(=O)NNc1ccccn1
  A: 10.3%	B: 4.6%	C: ?	D: -2.8%	E: 23.1µM*
14. Cc1cc(C)c(NC(=O)c2cc(CN3CCOCC3)on2)c(C)c1
  A: 0.6%	B: -2.6%	C: -2.2%	D: nt	E: 0.2%
15. Cc1oc2c(c1C(=O)Nc1ccccc1Br)C1=NCCN1C=N2
  A: 4.5%	B: -0.9%	C: 18.4µM*	D: nt	E: 20.6µM*
16. Cc1oc2c(c1C(=O)Nc1ccc(Cl)cc1F)C1=NCCN1C=N2
  A: 8.4%	B: -1.5%	C: -25.8%	D: nt	E: 16.4µM*
17. Cc1oc2c(c1C(=O)Nc1cccc(Br)c1)C1=NCCN1C=N2
  A: 5.8%	B: 0.9%	C: -6.0%	D: nt	E: -8.3%
18. Cc1cc(C)c(NC(=O)c2c(C)oc3c2C2=NCCN2C=N3)c(C)c1
  A: 0.6%	B: 0.1%	C: 16.4µM*	D: nt	E: 16.4µM*
19. COc1ccc(CNC(=O)CN(C(=O)c2snc(C(N)=O)c2N)c2ccc(OC)c(OC)c2)cc1
  A: 12.2%	B: 4.1%	C: 0.0%	D: 4.6%	E: -7.6%
20. CC(=O)N1CCc2cc(S(=O)(=O)NCC(=O)NCc3ccccc3Cl)ccc21
  A: 3.2%	B: -4.9%	C: -22.1%	D: -0.3%	E: 23.3%

# 3 records drawn at random from those above, as already listed:
# Abbreviations: A = TDP1 block; B = miR-21 reporter; C = TDP1 cell CPT; D = uPA surface inh; E = TDP1 cell noCPT
16. Cc1oc2c(c1C(=O)Nc1ccc(Cl)cc1F)C1=NCCN1C=N2
  A: 8.4%	B: -1.5%	C: -25.8%	D: nt	E: 16.4µM*
20. CC(=O)N1CCc2cc(S(=O)(=O)NCC(=O)NCc3ccccc3Cl)ccc21
  A: 3.2%	B: -4.9%	C: -22.1%	D: -0.3%	E: 23.3%
19. COc1ccc(CNC(=O)CN(C(=O)c2snc(C(N)=O)c2N)c2ccc(OC)c(OC)c2)cc1
  A: 12.2%	B: 4.1%	C: 0.0%	D: 4.6%	E: -7.6%

# (listing goes on)
# Abbreviations: A = TDP1 block; B = miR-21 reporter; C = TDP1 cell CPT; D = uPA surface inh; E = TDP1 cell noCPT
21. CC1CCc2c(sc3nnn(CC(=O)Nc4ccccc4Cl)c(=O)c23)C1 (stereo not drawn)
  A: 5.3%	B: -2.0%	C: ?	D: nt	E: 16.4µM*
22. CC1CCc2c(sc3nnn(CC(=O)Nc4ccc(Cl)cc4)c(=O)c23)C1 (stereo not drawn)
  A: 6.6%	B: -0.4%	C: ?	D: nt	E: ?
23. CC1CCc2c(sc3nnn(CC(=O)Nc4cccc(C(F)(F)F)c4)c(=O)c23)C1 (stereo not drawn)
  A: -1.1%	B: -0.1%	C: ?	D: nt	E: 20.6µM*
24. Cc1ccccc1S(=O)(=O)Oc1cccc2c(O)cccc12
  A: 3.4%	B: -17.9%	C: -11.8%	D: 19.2%	E: -4.1%
25. O=C(Nc1ccc(Cl)cc1)Nc1ccon1
  A: 2.0%	B: -3.3%	C: 18.4µM*	D: ?	E: 14.6µM*
26. COc1ccc(-c2onc(C)c2-c2cscn2)c(O)c1
  A: 2.6%	B: -0.2%	C: 5.5%	D: 2.4%	E: -1.4%
27. Cc1cc(O)cc(O)c1-c1onc(C(F)(F)F)c1-c1cscn1
  A: 4.9%	B: 27.4%	C: 18.4µM*	D: -2.2%	E: 10.3µM*
28. CCOc1ccc(-c2onc(C(F)(F)F)c2-c2cscn2)c(O)c1
  A: -4.0%	B: 19.6%	C: 11.2µM*	D: nt	E: ?
29. COc1ccccc1CN1CCNC(=O)C1CC(=O)N(C)Cc1cnccn1 (stereo not drawn)
  A: 1.2%	B: -0.5%	C: 5.7%	D: 3.4%	E: 5.3%
